The values below come from PubChem BioAssay AID1979 (Broad Institute, 2009).

This is a selection; strong and weak results do not stand in their true shares. Calls of active or inactive are those of the source.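 How the source made its calls: active means growth inhibition above about 58% in most replicates (limit read from the data, passing the limit was not always enough); inconclusive means exactly half the replicates above a set limit; inactive means most replicates below a set limit.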

A short description of the assay: Candida growth reduction under fluconazole – CaCi-2 strain, Alamar Blue fluorescence, primary screen (AID 1979).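 Further: all wells also contain fluconazole at 8 µg/ml as a sub-toxic cotreatment; 0% = median of DMSO wells and 100% = median of geldanamycin control wells.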 The conditions noted are these: C. albicans CaCi-2 (fluconazole-resistant clinical isolate) + fluconazole, 48 h, hits give high values, concentration not given here.
As to `CCc1ccc(OP(C)(=O)Nc2cccnc2)cc1` (configuration not stated), the growth inhibition is inactive: -8.36%.

With `CC(C)(C)c1ccc(OP(C)(=O)O)cc1`, the growth inhibition was inactive: 20.5%.

As for `Nc1ccc([As](=O)(O)c2ccc(N)cc2)cc1`, the growth inhibition is inactive: -3.12%.

For `COc1ccccc1OP(C)(=O)Nc1ccccc1Br` (configuration not stated), the growth inhibition was inactive: 9.99%.

`C[N+]1=C2C=CC=CC=C2SC12C([N+](=O)[O-])=CC([N+](=O)[O-])=C[C-]2[N+](=O)[O-]` (configuration not stated): the growth inhibition was inactive: 7.66%.

Turning to `CCN(/C(=N/P(=O)(N1CCOCC1)N1CCOCC1)N1CCOCC1)c1ccc(OC)cc1`, the growth inhibition was inactive: 6.64%.

As for `CP(=O)(Nc1ccc(Cl)cc1)Oc1ccc(F)cc1` (configuration not stated), the growth inhibition was inactive: 10.6%.

In the case of `CC(C)=N/N=C(\N)N[N+](=O)[O-]`, the growth inhibition is inactive: -1.6%.

With `CN(C)C(=O)OCCc1n(C)cc[n+]1C`, the growth inhibition was inactive: -16.9%.

With `CC1CCN(C(=O)Oc2c(Cl)cc(Cl)c3cccnc23)CC1`, the growth inhibition is inactive: 11%.

Turning to `Nc1ccc2c(ccc3cccnc32)n1.O=[N+]([O-])c1cc([N+](=O)[O-])c(O)c([N+](=O)[O-])c1`, the growth inhibition is inactive: 2.46%.

As for `CCOC(=O)c1ccc(NP(C)(=O)Oc2ccc(Cl)cc2)cc1` (configuration not stated), the growth inhibition was inactive: 20.5%.

Regarding `O=C(Nc1cc([As](=O)(O)O)ccc1O)c1ccccc1`, the growth inhibition is inactive: -2.5%.

With `CP(=O)(OC12CC3CC(CC(C3)C1)C2)OC12CC3CC(CC(C3)C1)C2`, the growth inhibition is inactive: -21.4%.

With `CC(C)(C)C(=O)NC(Sc1ccncn1)C(Cl)(Cl)Cl` (configuration not stated), the growth inhibition is inactive: -0.483%.

Turning to `O=[N+]([O-])c1ncn(CCn2ncnc2[N+](=O)[O-])n1`, the growth inhibition was inactive: 3.62%.

Consider `O=[N+]([O-])c1cccc(NC2=NCC(CBr)S2)c1` (configuration not stated), for which the growth inhibition is inactive: -3.19%.

As to `O=C(O)CNc1ccc([As](=O)(O)O)cc1`, the growth inhibition was inactive: 0.285%.

Turning to `CCOC(=O)Nc1ccc([As](=O)(O)O)c(O)c1`, the growth inhibition was inactive: -1.82%.

As to `CCCCOc1ccc(C(=O)NCC2(N3CCCCC3)CCCCC2)cc1OC`, the growth inhibition is inactive: -10.1%.

For `Cc1cc(SC(NC(=O)c2ccccc2)C(Cl)(Cl)Cl)nc(C(C)C)n1` (configuration not stated), the growth inhibition was inactive: -7.41%.

With `CCOC(=O)Nc1cccc([As](=O)(O)O)c1`, the growth inhibition is inactive: 6.99%.

Turning to `CP(=S)(Nn1cnnc1)Oc1ccccc1` (configuration not stated), the growth inhibition was inactive: -6.16%.

For the molecule `CP(=O)(Nc1ccccc1Br)Oc1ccccc1` (configuration not stated), the growth inhibition is inactive: 6.01%.

Turning to `O=[N+]([O-])c1ccc(Nc2ccc(Oc3ccc([N+](=O)[O-])cc3[N+](=O)[O-])cc2)c([N+](=O)[O-])c1`, the growth inhibition is inactive: 1.79%.

Consider `Cc1cc(SC(NC=O)C(Cl)(Cl)Cl)ncn1` (configuration not stated), for which the growth inhibition was inactive: 6.81%.

As for `COc1ccccc1OP(C)(=O)Nc1ccccc1` (configuration not stated), the growth inhibition was inactive: 10.4%.
